## Ab-14 light chain CDR variants: yeast mating affinities

Source: Li et al. 2023 (doi:10.1038/s41467-023-39022-2), MIT Lincoln Laboratory and A-Alpha Bio; data file from the FLAb repository.

Target peptide (SARS-CoV-2 spike, HR2 region): PDVDLGDISGINAS

Ab-14 is the parent antibody, in scFv form: VH, then a 15-residue (Gly4Ser)3 linker, then VL. The heavy chain is unchanged in all variants.
VH: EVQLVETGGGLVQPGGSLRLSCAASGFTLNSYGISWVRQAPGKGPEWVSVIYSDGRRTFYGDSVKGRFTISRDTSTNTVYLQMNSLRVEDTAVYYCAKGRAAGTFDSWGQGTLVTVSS
VL: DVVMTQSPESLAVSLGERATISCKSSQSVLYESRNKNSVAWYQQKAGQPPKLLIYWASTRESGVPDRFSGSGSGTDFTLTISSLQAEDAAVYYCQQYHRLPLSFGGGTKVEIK

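Designed CDR sequences, proposed from the first random library and measured here. Several design methods are mixed in this list. The scFvs were displayed on barcoded MATa yeast, the peptide on MATalpha yeast. The frequency of each diploid, read from paired DNA barcodes, reflects how well the two displayed proteins bind. Read counts were normalised to the haploid input and turned into Kd by a linear fit to BCL2-family pairs of known affinity, for each replicate. Mating was done six times.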

Each variant is given by its three light chain CDRs, as the data file delimits them; those of the parent are KSSQSVLYESRNKNSVA, WASTRES, QQYHRLPLS.
The read-out is the apparent dissociation constant on a log10 scale (nM): the lower, the stronger.
Averages over replicates are reported, and they cover detected replicates only.
Where no diploid with the target was found in any replicate, the entry reads "no signal": below detection, most likely a poor binder, though not proof of it.
Three control strains display no target. For all light chain designs, 4% of the pairings with them gave a signal, with a median of 2.64 and one signal in twenty below 1.59, so weak values seen in few replicates may be background.
The parent sequence was in this pool as ten entries: three were never detected, three once, and four in most replicates, with averages from 0.34 to 2.37.
Values of this round are not directly comparable with the first-round values of the same sequences.
In the paper, a design with two or fewer of six values counts as a poor binder.

CDR-L1,CDR-L2,CDR-L3,"mean, log10 nM",detected
KVSQSFLYEDRNKNSVA,NASTRES,QQYHRLPLS,-0.35,6/6
KFSQLVLYESRQKNSVA,DASQRLS,QQYHRLPLS,0.20,6/6
TIGQMFNGESRIRNSVA,QASTREP,QSYDRLPLS,1.90,5/6
KLQGSWLYESRNKNSVA,NASTRES,QQYHRLPLS,-0.13,6/6
KSSQGALYESRNKNSVA,GASTRES,QQYHRLPLS,1.58,5/6
KSSQSYDYESRNKNSVA,GASTRES,QQYHRLPLS,-0.08,6/6
KISQSVLTESRNKNSVA,NASCRES,QQYHRLPLS,0.00,6/6
KLSQSVLYESRNKNSIA,HASTRES,GQYHRLPLS,0.90,6/6
MLWQQMEGFNGVKDAIA,NAEERTG,QQYGRLPLS,1.56,6/6
KLYQSVWYESRNKNSVA,NASTRES,QQYHRLPLS,-0.18,6/6
KLSQSWLYESRNKNNVA,NASTRCS,QQYHRLPLS,-0.31,6/6
KLDFLGLYEQRNKNSVA,SASYRES,QQYHRLPLS,-0.26,6/6
KSSQLHLYESSNKNSVA,WASTRES,QQYHRLPLD,2.01,1/6
KCSQEKLYESRNKNSVA,DASTRES,QQYHRLPLS,0.02,6/6
KISQSQLYESRNKNSVA,NASTRCS,QQYHRLPLS,-0.13,6/6
SLMDNIWVEDTYRKAIA,DRNVRAK,QQYHRLPLS,0.62,6/6
HVSTSVLYESRNKNNVA,NASTRES,QQYHRLPLS,-0.41,6/6
KSQGGNLYESRNWNSVA,KASTRLQ,QQYHRLPLS,0.76,6/6
KSSQLELYESRQKNSVA,NASYRED,QQYHRLPLS,0.07,6/6
HITYGMMVAGRHSSSIA,QAEERAK,QQYDRLPLM,0.67,6/6
KFSQWELYESRTKNSVA,NASTRES,QQYHRLPLS,0.25,6/6
KSEQSVLYDSRNINSVA,GASTRES,QQYHRLPLS,-0.07,6/6
KLPQSQEYESRNKNSVA,EASTREL,QQYHRLPLS,0.02,6/6
KLSISIRGEGSEVQSVA,GAEELRQ,QHYNQLPLS,1.09,6/6
MISDLTMYGSRNKNSVA,DLSTRGQ,QQYHRLPLS,-0.23,6/6
KSSQSVLYEGRNKNSVA,WASTRCS,QDYHRDPLS,no signal,0/6
KLQQSWLYESRNCNSVA,NASQRES,QQYHRLPLS,0.46,6/6
KVYPSVLYESRNKNSVA,QASTRES,QQYHRLPLS,-0.35,6/6
KFEGSEGMESRNKNSVA,NASHRMS,QQYHRLPLS,0.24,6/6
KFMQSWLYESRNKNSVA,NASQREH,QQYHRLPLS,0.12,6/6
KSSQSVLPESRNKNSVA,GASTRES,QQYHRLPLS,0.00,6/6
MLSDLVKMGSRNTNSVA,DNSTRGD,QQYDRLPLS,2.27,1/6
MVVGPDEGEEHNWQSVA,SAEARAM,QQYFRLPLM,1.00,6/6
KMSQSVLYESRNKNEVA,WASTREQ,QQYHRLPLS,1.22,5/6
KIEISNSWSLRGTKAIA,QASTRAH,QQYQRLPLL,0.60,6/6
NISHFMETTSKNINNVA,EMTMREV,QQYHHLPLS,0.61,6/6
KFSYSELYEERNQNSVA,GASQRES,QQYHRLPLS,0.09,6/6
KFQQAMLYESRNKNSVA,NASCRES,QQYHRLPLS,0.03,6/6
KMRQSVLNESRNKNSVA,WASTRES,QQYHRLPLS,1.36,6/6
KISQSILFMSGKKNAIA,QMEMREE,QQYDRLPLS,1.21,4/6
KLQQSDLYESRNKNSVA,NASQRLS,QQYHRLPLS,0.05,6/6
KLPWSTLYESRQKNSVA,WASTRES,QQYHRLPLS,0.78,6/6
KQSFMVMEGSRNKNSVA,EASQREE,QQYHRLPLS,3.07,1/6
KSSQSVLTESRNNNSVA,WASTRES,QQYHRLPLS,2.18,5/6
KISQMFNVGTKNTNSLA,EMNTRGT,QDYHRLPLS,1.36,6/6
KLSQSCLYDSRNKNSVA,NASTRES,QQYHRLPLS,-0.17,6/6
NLNDSDMYMPQMTDNIA,QDTLRNE,QQYAKLPLS,1.27,6/6
TIGASLMYGSRNRSNVA,EVSERLN,QQYDRLPLE,1.52,6/6
ALTAHRQVAIEAKNSIA,NAVMRYQ,QQYAQLPLM,1.45,6/6
TISQITTLFSQTTNNVA,EVSTREK,QQYDRLPLS,0.63,6/6

The 3 strongest on average among those seen in every replicate, once more:

CDR-L1,CDR-L2,CDR-L3,"mean, log10 nM",detected
HVSTSVLYESRNKNNVA,NASTRES,QQYHRLPLS,-0.41,6/6
KVYPSVLYESRNKNSVA,QASTRES,QQYHRLPLS,-0.35,6/6
KVSQSFLYEDRNKNSVA,NASTRES,QQYHRLPLS,-0.35,6/6